From patent publication US20080193921

What was measured:
[1] = molecular target: σ^70, the major σ initiation factor of Escherichia coli (wild-type) (UniProt P00579); experiment: trypsin protection of the β flap-tip, 2-fold molar excess σ70, gel quantification; rate without σ70 printed as 12 ± 2*
[2] = molecular target: σ^70, the major σ initiation factor of Escherichia coli (wild-type) (UniProt P00579); experiment: trypsin protection of the β flap-tip, 2-fold molar excess σ70, gel quantification; rate without σ70 printed as 9.2 ± 0.1

Substance	β cleavage rate + σ^70 [1] [s⁻¹]	β cleavage rate + σ^70 [2] [s⁻¹]
Escherichia coli RNA polymerase bearing the LQ901 substitution in the β subunit	0.01	
wild-type Escherichia coli RNA polymerase (core enzyme, α, β, β′ subunits)		0.0016
